Experimental findings from patent US11883505B2, “Anticancer drug-containing plant virus particles” (CASE WESTERN RESERVE UNIVERSITY, priority 2015, dated 2024) are described below.

A short description of the series: Liver and kidney toxicity in Balb/c mice (AST, ALT, histology). Conditions: 24 h following administration.

With phenanthriplatin, the “kidney histology (H&E)” value is recorded as “necrosis of epithelia on the proximal tubules as well as narrowing of the lumen”.
